Data reported in ChEMBL document CHEMBL5126552, “Discovery of small-molecule compounds and natural products against Parkinson's disease: Pathological mechanism and structural modification” (Eur J Med Chem, 2022).

Species: Mus musculus
Details: C57BL/6

- Km: 40 µM
SMILES: CC1=C(C)C(=O)c2cc(C)ccc2C1=O
